pIC50: −log10 of the molar value.
Legend:
[1] = target: Tyrosine-protein kinase BTK (Homo sapiens, UniProt Q06187); assay: Potency index, ratio of test compound Kd to GDC-0853 Kd for full length BTK (unknown origin)
Procedure, shortened: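 TR-FRET binding used 0.05 nM purified full-length unactivated BTK, 10 nM Alexa Fluor647 kinase tracer and 2 nM Tb antibody. […] The index is the ratio to the reference inhibitor's Kd.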

By UniProt entry, the sequences of proteins in these tests, tags left out. Where a name states a change or a piece, a line headed by the entry shows the natural chain unless it says otherwise.
UniProt Q06187: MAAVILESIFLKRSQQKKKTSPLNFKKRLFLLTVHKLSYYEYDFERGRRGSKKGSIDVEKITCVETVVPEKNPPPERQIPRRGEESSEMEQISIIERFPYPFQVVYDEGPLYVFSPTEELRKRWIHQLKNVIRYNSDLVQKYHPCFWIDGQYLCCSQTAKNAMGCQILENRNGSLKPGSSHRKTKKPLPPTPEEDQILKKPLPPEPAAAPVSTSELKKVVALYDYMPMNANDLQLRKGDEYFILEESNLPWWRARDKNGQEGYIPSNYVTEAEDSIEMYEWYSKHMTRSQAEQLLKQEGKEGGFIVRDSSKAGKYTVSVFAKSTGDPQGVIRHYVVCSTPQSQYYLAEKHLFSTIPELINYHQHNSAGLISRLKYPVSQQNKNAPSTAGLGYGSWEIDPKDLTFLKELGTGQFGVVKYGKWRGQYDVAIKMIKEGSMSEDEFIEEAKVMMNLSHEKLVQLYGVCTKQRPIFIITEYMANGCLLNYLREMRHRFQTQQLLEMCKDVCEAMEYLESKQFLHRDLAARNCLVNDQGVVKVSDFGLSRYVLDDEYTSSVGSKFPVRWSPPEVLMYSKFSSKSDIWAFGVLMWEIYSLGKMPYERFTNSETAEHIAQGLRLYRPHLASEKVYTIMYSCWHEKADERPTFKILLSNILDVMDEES

[2] = Cytotoxicity against human MINO cells incubated for 48 hrs by celltitre glo 2.0 assay; assay type: functional, cell-based
Procedure, shortened: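 Mino cells seeded at 10,000/well, treated across 3,000–0.15 nM (3-fold series) against 1% DMSO vehicle. CellTiter-Glo 2.0 luminescence viability read-out. IC50 from four-parameter curve fitting, mean ± SD, triplicates of three independent experiments.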

Compound	Ratio [1]	pIC50 [2]
C[C@H]1CN(C(=O)CNc2cccc3c2C(=O)N(C2CCC(=O)NC2=O)C3=O)CCN1c1ccc(Nc2cc(-c3ccnc(N4CCn5c(cc6c5CC(C)(C)C6)C4=O)c3CO)cn(C)c2=O)nc1 (some centres not stated)	10	–
Nc1cccc2c1C(=O)N(C1CCC(=O)NC1=O)C2=O (configuration not stated) [POMALIDOMIDE]	–	7.68
